The molecules below were run against Cholecystokinin receptor type A (Rattus norvegicus, UniProt P30551) (assay: Inhibition of binding of [125I]- CCK-33 to rat pancreas).

The chains behind the UniProt entries cited, without tags or fusion partners.
UniProt P30551, whole entry: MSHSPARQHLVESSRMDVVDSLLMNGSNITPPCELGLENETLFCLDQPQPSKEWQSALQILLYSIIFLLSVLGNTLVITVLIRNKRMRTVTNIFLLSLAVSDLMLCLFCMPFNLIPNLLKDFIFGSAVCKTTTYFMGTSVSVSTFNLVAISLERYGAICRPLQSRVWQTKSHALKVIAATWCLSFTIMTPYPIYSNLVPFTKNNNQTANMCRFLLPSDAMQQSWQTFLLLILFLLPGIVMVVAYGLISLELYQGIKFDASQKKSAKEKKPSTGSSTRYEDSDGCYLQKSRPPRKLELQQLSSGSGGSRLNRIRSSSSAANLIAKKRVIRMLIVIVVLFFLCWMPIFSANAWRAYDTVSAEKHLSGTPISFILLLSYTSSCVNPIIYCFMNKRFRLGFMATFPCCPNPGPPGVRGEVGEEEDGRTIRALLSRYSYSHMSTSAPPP

| Compound | IC50 [nM] |
| --- | --- |
| CCCN(CCC)C(=O)C(CCC(=O)O)NC(=O)c1cc2ccccc2[nH]1 (single isomer, unassigned) | 3700 |
| CCCN(CCC)C(=O)C(CCC(=O)OCc1ccccc1)NC(=O)c1cc2ccccc2[nH]1 (single isomer, unassigned) | 810 |
| CCCCCN(CCCCC)C(=O)C(CCC(=O)O)NC(=O)Nc1ccc(Cl)cc1 (stereo unspecified) | 140 |

The next lines start with the values.

| IC50 [nM] | Compound |
| --- | --- |
| 1100 | CCCN(CCC)C(=O)[C@H](CCC(=O)O)NC(=O)c1cc2ccccc2[nH]1 |
| 200 | O=C(CCC(NC(=O)c1cc2ccccc2[nH]1)C(=O)N(C1CCCCC1)C1CCCCC1)OCc1ccccc1 (single isomer, unassigned) |
| 7.6 | CCCCCN(CCCCC)C(=O)C(CCC(=O)O)NC(=O)c1cc2ccccc2[nH]1 (single isomer, unassigned) |

Reference: ChEMBL document CHEMBL1125047, “Novel glutamic acid derived cholecystokinin receptor ligands” (J Med Chem, 1990)
